These results are taken from publication PMC6884456, “Supreme activity of gramicidin S against resistant, persistent and biofilm cells of staphylococci and enterococci” (Scientific Reports, 2019).

Holding throughout (conditions): Mueller-Hinton broth, 22 h + 2 h resazurin, 37 °C, 5% CO2, three parallels
(Alamar Blue is a resazurin reagent that responds to reducing activity.)

The subject of assay [1] is E. faecalis TRE1. The assay is classed as cell-based, Enterococcus faecalis.
Assay [2] has as its system E. faecalis TRE4. The assay is classed as cell-based, Enterococcus faecalis.
The subject of assay [3] is S. aureus MRSA8 SCV. As for the experimental part: (§1) For the determination of MIC, the standard broth microdilution procedure[45] was used with a slight modification. Since the peptide stock solutions were prepared in 50% ethanol, the first rows of the 96-well microtiter plates were filled with 50 µl of 2 × concentrated Mueller-Hinton broth to reestablish the normal broth concentration after the addition of 50 µl peptide solutions. The MIC was determined as the lowest concentration that inhibited bacterial growth, judging from bacterial respiration in three parallels for each antibiotic. After incubation of the plates for 22 hours, the redox indicator resazurin (Sigma-Aldrich) was added to the wells (20 µl, 80 µM). The plates were incubated another 2 hours at 37 °C and 5% CO2. Respiration was determined as the difference in the absorption at 570 nm to 600 nm, using a microplate reader FLASHScan 550 (Analytik Jena).

Assay [4] concerns S. aureus MRSA538 SCV. As for the experimental part: as §1
Assay [5] concerns S. aureus MRSA9 SCV. The procedure: as §1
The test system of assay [6] is S. aureus DSM 1104 SCV. Type of assay: cell-based, Staphylococcus aureus.
The test system of assay [7] is E. faecalis WW4. The assay is classed as cell-based, Enterococcus faecalis.
For assay [8], the system named is E. faecalis TRE2. The assay is classed as cell-based, Enterococcus faecalis.
In assay [9] the test system is E. faecalis WW6. The assay is classed as cell-based, Enterococcus faecalis.
Assay [10] deals with S. aureus MRSA4. The assay is classed as cell-based, Staphylococcus aureus.
For assay [11], the system named is S. aureus MRSA9. Type of assay: cell-based, Staphylococcus aureus.
Assay [12] relates to E. faecalis DSM 2570. Type of assay: cell-based, Enterococcus faecalis.
Assay [13] concerns S. aureus DSM 1104. The assay is classed as cell-based, Staphylococcus aureus.
The test system of assay [14] is E. faecium VRE1. Type of assay: cell-based, Enterococcus faecium.
Assay [15] deals with E. faecium VRE2. The assay is classed as cell-based, Enterococcus faecium.
For assay [16], the system named is S. aureus MRSA3. The assay is classed as cell-based, Staphylococcus aureus.

On to `CC[C@H](C)[C@H](NC(=O)[C@H](CCCNC(=N)N)NC(=O)[C@@H](NC(=O)[C@H](C)NC(=O)[C@@H](NC(=O)[C@@H](NC(=O)[C@H](CC(C)C)NC(=O)[C@H](CCCNC(=N)N)NC(=O)[C@@H](N)C(C)C)[C@@H](C)CC)C(C)C)C(C)C)C(=O)N[C@@H](Cc1c[nH]c2ccccc12)C(=O)N[C@@H](CCCNC(=N)N)C(=O)N[C@@H](CCCNC(=N)N)C(N)=O` [IDR, IDR-1018], for which the MIC in [1] is 32 (21) µg/ml; in assay [2], 16 (10) µg/ml; in [3], 64 (42) µg/ml; in assay [4], 64 (42) µg/ml; in assay [5] it was 64 (42) µg/ml; in [6] it was 64 (42) µg/ml. Further, the MIC in [7], in assay [8], in assay [9], in assay [10], in assay [11] and in assay [12] was 32 (21) µg/ml in each case. The MIC was 32 (21) µg/ml in assay [13], 16 (10) µg/ml in assay [14], 8 (5) µg/ml in assay [15] and 64 (42) µg/ml in assay [16].
